Experimental findings from patent publication US9078909B2, “Tertiary amines, medicaments containing said amines, use thereof and processes for the preparation thereof” (Boehringer Ingelheim International GmbH, priority 2012, dated 2015) are described below.

By UniProt entry, the sequences of proteins in these tests, tags left out.
UniProt Q61180, whole entry: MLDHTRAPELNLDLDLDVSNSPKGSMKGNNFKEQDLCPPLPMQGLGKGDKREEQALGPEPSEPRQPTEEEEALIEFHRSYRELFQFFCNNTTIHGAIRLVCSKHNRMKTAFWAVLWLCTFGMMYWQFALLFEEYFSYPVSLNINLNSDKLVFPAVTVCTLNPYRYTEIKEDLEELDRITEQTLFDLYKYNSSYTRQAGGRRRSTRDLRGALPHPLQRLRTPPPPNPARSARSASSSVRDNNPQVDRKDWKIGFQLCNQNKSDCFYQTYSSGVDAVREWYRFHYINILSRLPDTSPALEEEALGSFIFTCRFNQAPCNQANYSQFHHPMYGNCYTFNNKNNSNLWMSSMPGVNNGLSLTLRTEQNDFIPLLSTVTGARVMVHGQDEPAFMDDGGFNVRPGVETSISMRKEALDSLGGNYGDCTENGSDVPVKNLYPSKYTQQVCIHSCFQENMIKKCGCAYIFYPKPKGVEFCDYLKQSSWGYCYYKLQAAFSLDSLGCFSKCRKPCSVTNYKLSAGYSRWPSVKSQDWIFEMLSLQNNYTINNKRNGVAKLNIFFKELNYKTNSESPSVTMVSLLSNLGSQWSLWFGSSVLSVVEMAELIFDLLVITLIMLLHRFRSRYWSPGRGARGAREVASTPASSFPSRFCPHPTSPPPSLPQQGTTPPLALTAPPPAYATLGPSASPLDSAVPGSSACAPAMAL
UniProt Q9WU38, whole entry: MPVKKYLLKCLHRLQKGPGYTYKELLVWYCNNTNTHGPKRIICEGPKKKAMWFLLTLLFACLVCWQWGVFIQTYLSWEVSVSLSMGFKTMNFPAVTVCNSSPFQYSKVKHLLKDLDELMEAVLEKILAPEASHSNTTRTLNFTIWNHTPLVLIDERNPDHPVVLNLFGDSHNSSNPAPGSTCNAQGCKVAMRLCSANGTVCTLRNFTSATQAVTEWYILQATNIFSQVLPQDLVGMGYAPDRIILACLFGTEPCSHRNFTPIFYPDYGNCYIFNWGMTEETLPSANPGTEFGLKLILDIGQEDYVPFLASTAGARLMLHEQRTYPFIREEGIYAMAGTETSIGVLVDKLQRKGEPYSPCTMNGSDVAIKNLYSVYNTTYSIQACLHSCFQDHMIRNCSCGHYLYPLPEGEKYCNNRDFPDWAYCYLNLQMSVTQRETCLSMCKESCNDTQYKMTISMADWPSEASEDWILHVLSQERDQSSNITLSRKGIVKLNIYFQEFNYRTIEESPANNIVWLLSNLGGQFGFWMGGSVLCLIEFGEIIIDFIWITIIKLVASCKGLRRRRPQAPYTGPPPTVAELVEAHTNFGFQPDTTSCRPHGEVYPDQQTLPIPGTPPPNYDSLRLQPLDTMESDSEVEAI
UniProt Q9WU39, whole entry: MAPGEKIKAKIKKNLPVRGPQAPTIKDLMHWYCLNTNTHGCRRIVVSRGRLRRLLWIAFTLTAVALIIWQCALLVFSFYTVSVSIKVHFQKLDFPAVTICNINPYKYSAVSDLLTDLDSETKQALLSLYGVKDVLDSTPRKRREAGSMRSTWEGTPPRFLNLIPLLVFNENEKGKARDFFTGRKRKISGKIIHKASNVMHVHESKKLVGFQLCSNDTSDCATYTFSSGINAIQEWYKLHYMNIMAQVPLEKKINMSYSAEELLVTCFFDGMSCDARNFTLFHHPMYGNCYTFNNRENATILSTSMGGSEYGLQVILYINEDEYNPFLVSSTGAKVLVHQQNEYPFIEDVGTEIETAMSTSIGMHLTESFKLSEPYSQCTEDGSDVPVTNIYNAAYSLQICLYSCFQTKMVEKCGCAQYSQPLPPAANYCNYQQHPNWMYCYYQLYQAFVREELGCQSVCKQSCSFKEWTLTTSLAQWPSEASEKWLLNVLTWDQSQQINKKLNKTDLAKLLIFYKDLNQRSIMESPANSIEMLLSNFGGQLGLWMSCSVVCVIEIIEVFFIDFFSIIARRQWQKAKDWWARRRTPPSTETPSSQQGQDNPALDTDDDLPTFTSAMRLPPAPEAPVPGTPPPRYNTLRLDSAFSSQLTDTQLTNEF

The test addresses epithelial sodium channel (ENaC) (Mus musculus, UniProt Q61180+Q9WU38+Q9WU39). Put plainly: Ussing Chamber assay: inhibition of amiloride sensitive short circuit current (I_sc) in M-1 cells. The following applies: mouse kidney M-1 cells on transwell filters, compound added to apical solution, 37° C. As for the experimental part:
Ussing Chamber: Mouse kidney M-1 cells were cultivated in DMEM containing 5% FCS and 5 μM dexamethasone for 10 to 12 days on polyester transwell filters. Filters were inserted into a teflon-coated well-plate which fit into the in-house ussing chamber system. Prior to measurement the medium of M-1 cells was replaced with Caco-2 transport buffer (Invitrogen, Germany). During measurements, the Ussing chamber temperature was kept at 37° C. Short circuit currents (I_sc) were measured in the voltage-clamp mode using an in-house built amplifier (Boehringer Ingelheim, Biberach) with the software package Lab View for data acquisition and analysis. The transepithelial electrical resistance (TEER) was determined by the application of voltage steps of ±5 mV every 5 sec. Compounds were administered at a final concentration of 3 μM or at increasing concentrations (e.g. 1-3-10 μM) to the apical solution. At the end of each experiment the amiloride sensitive I_SC was measured by adding 3 μM amiloride to the apical compartment. Results are expressed as inhibition in percent of the amiloride effect or as IC50.
With the example compounds given above, the following IC50 values were determined in the Ussing Chamber assay: […]

What is called IC50 is the concentration that gives 50% inhibition.

In the case of `NC(=NC(=O)c1nc(Cl)c(N)nc1N)NC1CCN(CC(=O)Nc2ccc(C(=O)O)cc2)CC1`, the IC50 worked out at 0.038 µM.
